FRET efficiency E% and average FRET efficiency E% data for one substance are collected here from paper PMC3917506.

This assay concerns the target Venus-IQGAP1 (human) (UniProt P46940). The experiment in a line: FRET or BRET. In general terms: In BRET a luciferase serves as donor, and the signal depends on an acceptor being close.

On to “CFP-Rac1 (from UniProt P63000 1-192) (natural protein; other documents disagree on this pair)”, for which the FRET efficiency E% at low D:A ratios (regression line) was 25% and the average FRET efficiency E% was 23%.
